Source: BindingDB's records for doi:10.1021/jm8000949 (China Pharmaceutical University, 2008)

Biological target: T1, Glycogen phosphorylase, muscle form (Oryctolagus cuniculus, UniProt P00489)
T1 sequence (P00489 whole entry): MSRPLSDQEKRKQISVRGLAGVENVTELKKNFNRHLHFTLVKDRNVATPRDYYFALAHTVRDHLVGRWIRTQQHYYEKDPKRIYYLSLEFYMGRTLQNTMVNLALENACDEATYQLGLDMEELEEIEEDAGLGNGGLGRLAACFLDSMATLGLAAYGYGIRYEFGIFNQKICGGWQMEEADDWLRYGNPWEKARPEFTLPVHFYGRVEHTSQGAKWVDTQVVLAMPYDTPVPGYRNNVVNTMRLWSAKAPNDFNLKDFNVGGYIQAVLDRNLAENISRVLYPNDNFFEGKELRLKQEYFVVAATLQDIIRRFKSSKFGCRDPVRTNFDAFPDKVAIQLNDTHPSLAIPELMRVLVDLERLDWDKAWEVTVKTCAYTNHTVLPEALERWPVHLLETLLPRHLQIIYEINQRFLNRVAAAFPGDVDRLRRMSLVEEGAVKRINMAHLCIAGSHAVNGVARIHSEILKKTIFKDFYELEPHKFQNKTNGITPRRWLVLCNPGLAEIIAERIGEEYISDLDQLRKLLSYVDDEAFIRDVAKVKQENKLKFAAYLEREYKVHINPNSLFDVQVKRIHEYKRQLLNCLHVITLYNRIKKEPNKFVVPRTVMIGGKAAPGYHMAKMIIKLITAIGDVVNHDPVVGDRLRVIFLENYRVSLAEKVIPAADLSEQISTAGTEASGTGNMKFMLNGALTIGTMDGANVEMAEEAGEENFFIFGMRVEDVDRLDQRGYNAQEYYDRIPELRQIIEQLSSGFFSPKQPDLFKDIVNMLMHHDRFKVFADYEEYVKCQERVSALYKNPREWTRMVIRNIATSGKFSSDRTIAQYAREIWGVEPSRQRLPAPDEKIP
Assay: Enzyme Inhibition Assay
Settings: pH 7.2; 22 °C
Method: The activity of the compounds is determined by measuring the inhibitory effect of the compounds in the direction of glycogen synthesis, the conversion of glucose-1-phosphate into glycogen with the release of inorganic phosphate, which was monitored using microplate reader (BIO-RAD). […] The IC50 values were estimated by fitting the inhibition data to a dose dependent curve using a logistic derivative equation.

| IC50 | SMILES |
| --- | --- |
| 14 µM | CC1(C)CC[C@]2(C(=O)O)CC[C@]3(C)C(=CC[C@@H]4[C@@]5(C)CC[C@H](O)C(C)(C)C5CC[C@]43C)[C@@H]2C1 (some centres not stated) [pentacyclic triterpene compound 1] |
| 21 µM | CC1(C)CC[C@]2(C(=O)O)CC[C@]3(C)C(=CC[C@@H]4[C@@]5(C)CC[C@@H](O)C(C)(C)C5CC[C@]43C)[C@@H]2C1 (some centres not stated) [pentacyclic triterpene compound 2] |
